CycPeptMPDB entries from one study

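Conditions beyond the assay type are not listed; see the original paper. The list need not hold all peptides of the study. Peptides that the database sets to -10, its floor, are left out.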

PAMPA measures passive passage through an artificial lipid membrane. Permeability is in 10^-6 cm/s, converted from the database's log10 values; higher is more permeable.

| SMILES | PAMPA (10^-6 cm/s) |
|---|---|
| CC(C)C[C@@H]1NC(=O)[C@@H](CC(C)C)N(C)C(=O)[C@H](C)NC(=O)[C@H]2CCCN2C(=O)[C@H](Cc2ccccc2)NC(=O)[C@@H](CC(C)C)N(C)C(=O)[C@@H]2CCCN2C1=O | 4 |
| CC(C)C[C@H]1NC(=O)[C@H](C)NC(=O)[C@@H]2CCCN2C(=O)[C@H](Cc2ccccc2)NC(=O)CN(Cc2ccccc2)C(=O)[C@@H]2CCCN2C(=O)[C@H](CC(C)C)N(C)C1=O | 1.8 |
| CC(C)C[C@@H]1C(=O)N(Cc2ccccc2)CC(=O)N2CCC[C@@H]2C(=O)N[C@H](CC(C)C)C(=O)N[C@@H](Cc2ccccc2)C(=O)N2CCC[C@@H]2C(=O)N(C)[C@H](C)C(=O)N1C | 2.5 |
| CC(C)C[C@@H]1NC(=O)[C@H](C)N(C)C(=O)[C@H]2CCCN2C(=O)[C@H](Cc2ccccc2)NC(=O)[C@@H](CC(C)C)N(C)C(=O)[C@H]2CCCN2C(=O)C[C@H](Cc2ccccc2)NC1=O | 0.93 |
| CC(C)C[C@H]1NC(=O)[C@@H]2CCCN2C(=O)C[C@H](Cc2ccccc2)NC(=O)[C@H](CC(C)C)N(C)C(=O)[C@H](C)NC(=O)[C@H](Cc2ccccc2)NC1=O | 0.13 |
| CCCN1CC(=O)N(C)[C@@H](CC(C)C)C(=O)N(C)[C@H](CC(C)C)C(=O)N2CCC[C@@H]2C(=O)N(C)[C@@H](CC(C)C)C(=O)N[C@@H](Cc2ccccc2)C(=O)N2CCC[C@H]2C1=O | 11 |
| CCCN1CC(=O)N(C)[C@@H](CC(C)C)C(=O)N(Cc2ccccc2)CC(=O)N2CCC[C@@H]2C(=O)N(C)[C@@H](CC(C)C)C(=O)N[C@@H](Cc2ccccc2)C(=O)N2CCC[C@H]2C1=O | 6.2 |
| CC(C)C[C@@H]1NC(=O)[C@H](C)N(C)C(=O)[C@H]2CCCN2C(=O)[C@H](Cc2ccccc2)NC(=O)[C@@H](CC(C)C)NC(=O)[C@@H]2CCCN2C(=O)[C@H](CC(C)C)N(C)C1=O | 1.2 |
| CC(C)C[C@@H]1NC(=O)[C@H]2CCCN2C(=O)[C@H](CC(C)C)NC(=O)[C@@H](CC(C)C)NC(=O)[C@@H](C)N(C)C(=O)[C@H](Cc2ccccc2)NC1=O | 0.76 |
| CC(C)C[C@@H]1C(=O)N[C@@H](Cc2ccccc2)C(=O)N2CCC[C@H]2C(=O)N[C@@H](Cc2ccccc2)CC(=O)N(Cc2ccccc2)CC(=O)N[C@@H](Cc2ccccc2)CC(=O)N2CCC[C@H]2C(=O)N1C | 0.66 |
| CC(C)C[C@@H]1NC(=O)[C@H]2CCCN2C(=O)CN(Cc2ccccc2)C(=O)[C@@H](CC(C)C)NC(=O)C[C@H](Cc2ccccc2)NC(=O)[C@@H]2CCCN2C(=O)[C@H](Cc2ccccc2)NC1=O | 1.7 |
| CC(C)C[C@H]1NC(=O)[C@H](CC(C)C)N(C)C(=O)[C@@H](C)NC(=O)[C@@H]2CCCN2C(=O)[C@H](Cc2ccccc2)NC(=O)CN(Cc2ccccc2)C(=O)[C@H]2CCCN2C1=O | 1.7 |
| CC(C)C[C@@H]1C(=O)N[C@@H](Cc2ccccc2)CC(=O)N2CCC[C@H]2C(=O)N[C@H](CC(C)C)C(=O)N[C@@H](Cc2ccccc2)C(=O)N2CCC[C@@H]2C(=O)N(C)[C@H](C)C(=O)N1C | 2.8 |
| CC(C)C[C@@H]1NC(=O)[C@H](CC(C)C)N(C)C(=O)[C@@H](C)N(C)C(=O)[C@H](Cc2ccccc2)NC(=O)[C@@H](CC(C)C)NC(=O)[C@@H]2CCCN2C1=O | 7.4 |
| CC(C)C[C@H]1NC(=O)[C@H](C)N(C)C(=O)[C@H](Cc2ccccc2)NC(=O)[C@@H](CC(C)C)NC(=O)[C@@H]2CCCN2C(=O)[C@@H](CC(C)C)NC1=O | 5.1 |
| CC(C)C[C@@H]1NC(=O)[C@@H]2CCCN2C(=O)[C@H](CC(C)C)NC(=O)[C@H](CC(C)C)N(C)C(=O)[C@@H](C)N(C)C(=O)[C@H]2CCCN2C(=O)[C@H](Cc2ccccc2)NC1=O | 0.19 |
| CCCN1CC(=O)N(C)[C@H](CC(C)C)C(=O)N[C@@H](CC(C)C)C(=O)N2CCC[C@@H]2C(=O)N(C)[C@H](CC(C)C)C(=O)N[C@@H](Cc2ccccc2)C1=O | 11 |
| CC(C)C[C@@H]1NC(=O)[C@H](C)N(C)C(=O)[C@H](Cc2ccccc2)NC(=O)[C@@H](CC(C)C)NC(=O)[C@H]2CCCN2C(=O)C[C@H](Cc2ccccc2)NC1=O | 0.76 |
| CC(C)C[C@@H]1NC(=O)[C@H](CC(C)C)N(C)C(=O)[C@H](C)N(C)C(=O)[C@H]2CCCN2C(=O)[C@H](Cc2ccccc2)NC(=O)CN(Cc2ccccc2)C(=O)[C@H]2CCCN2C1=O | 4.7 |
| CC(C)C[C@@H]1C(=O)N(C)[C@H](CC(C)C)C(=O)N2CCC[C@@H]2C(=O)N(Cc2ccccc2)CC(=O)N[C@@H](Cc2ccccc2)C(=O)N2CCC[C@H]2C(=O)N(C)[C@H](C)C(=O)N1C | 2.5 |
| CC(C)C[C@@H]1C(=O)N2CCC[C@H]2C(=O)N[C@H](CC(C)C)C(=O)N[C@@H](Cc2ccccc2)C(=O)N[C@H](C)C(=O)N(C)[C@H](CC(C)C)C(=O)N1C | 6.6 |
| CCCN1CC(=O)N(C)[C@H](CC(C)C)C(=O)N(Cc2ccccc2)CC(=O)N2CCC[C@H]2C(=O)N[C@@H](CC(C)C)C(=O)N[C@@H](Cc2ccccc2)C(=O)N2CCC[C@H]2C1=O | 1.3 |
| CCCN1CC(=O)N(C)[C@H](CC(C)C)C(=O)N[C@@H](Cc2ccccc2)CC(=O)N2CCC[C@H]2C(=O)N[C@H](CC(C)C)C(=O)N[C@@H](Cc2ccccc2)C(=O)N2CCC[C@H]2C1=O | 4 |

A selection of 3 entries from above:

| SMILES | PAMPA (10^-6 cm/s) |
|---|---|
| CC(C)C[C@@H]1NC(=O)[C@H](CC(C)C)N(C)C(=O)[C@H](C)N(C)C(=O)[C@H]2CCCN2C(=O)[C@H](Cc2ccccc2)NC(=O)CN(Cc2ccccc2)C(=O)[C@H]2CCCN2C1=O | 4.7 |
| CC(C)C[C@@H]1NC(=O)[C@H](C)N(C)C(=O)[C@H]2CCCN2C(=O)[C@H](Cc2ccccc2)NC(=O)[C@@H](CC(C)C)N(C)C(=O)[C@H]2CCCN2C(=O)C[C@H](Cc2ccccc2)NC1=O | 0.93 |
| CC(C)C[C@@H]1C(=O)N(Cc2ccccc2)CC(=O)N2CCC[C@@H]2C(=O)N[C@H](CC(C)C)C(=O)N[C@@H](Cc2ccccc2)C(=O)N2CCC[C@@H]2C(=O)N(C)[C@H](C)C(=O)N1C | 2.5 |

Source: CycPeptMPDB (Li et al. 2023), which took these values from Townsend et al. 2020, doi:10.26434/chemrxiv.13335941.v1.